Earlier results on 1 molecule are cited in patent publication US20060078562A1, “RAGE fusion proteins and methods of use” (priority 2004, published 2006).

The conditions of this data set: cited from earlier work.

B1: sRAGE: the RAGE protein that does not include the transmembrane region or the cytoplasmic tail; species not stated at the place (protein, listed as Homo sapiens)
chain: MAAGTAVGAWVLVLSLWGAVVGAQNITARIGEPLVLKCKGAPKKPPQRLEWKLNTGRTEAWKVLSPQGGGPWDSVARVLPNGSLFLPAVGIQDEGIFRCQAMNRNGKETKSNYRVRVYQIPGKPEIVDSASELTAGVPNKVGTCVSEGSYPAGTLSWHLDGKPLVPNEKGVSVKEQTRRHPETGLFTLQSELMVTPARGGDPRPTFSCSFSPGLPRHRALRTAPIQPRVWEPVPLEEVQLVVEPEGGAVAPGGTVTLTCEVPAQPSPQIHWMKDGVPLPLPPSPVLILPEIGPQDQGTYSCVATHSSHGPQESRAVSISIIEPGEEGPTAGSVGGSGLG
On to B1, for which the “half-life in human plasma” value is “only a few hours”.
